Sequences of proteins named here, by UniProt entry; tags and fusion partners are left off. Residues count along the entry.
UniProt Q786F3, 113-550: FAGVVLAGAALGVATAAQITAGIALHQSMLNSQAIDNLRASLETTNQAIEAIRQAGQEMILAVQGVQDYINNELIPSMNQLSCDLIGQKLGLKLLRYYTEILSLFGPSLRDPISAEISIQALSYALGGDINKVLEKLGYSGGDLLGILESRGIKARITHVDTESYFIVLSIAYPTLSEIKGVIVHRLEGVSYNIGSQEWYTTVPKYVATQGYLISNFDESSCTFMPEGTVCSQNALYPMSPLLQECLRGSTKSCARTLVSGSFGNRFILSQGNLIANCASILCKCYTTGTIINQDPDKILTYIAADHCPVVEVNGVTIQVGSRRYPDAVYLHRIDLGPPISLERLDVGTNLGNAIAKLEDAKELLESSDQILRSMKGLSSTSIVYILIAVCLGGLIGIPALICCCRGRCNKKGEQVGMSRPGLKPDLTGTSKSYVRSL
UniProt Q786F3, 24-112: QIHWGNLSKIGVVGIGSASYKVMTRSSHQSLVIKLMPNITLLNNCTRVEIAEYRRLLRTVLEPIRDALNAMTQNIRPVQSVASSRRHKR

According to publication PMC9616412, “Nebulized fusion inhibitory peptide protects cynomolgus macaques from measles virus infection” (Nature Communications, 2022):

Molecular target: MeV F (IC323 H and F), wild-type (Measles virus, UniProt Q786F3)
Test: β-gal complementation cell-cell fusion assay, wild-type F
Details: 5 µM, β-galactosidase complementation

CC[C@H](C)[C@H](NC(=O)[C@H](C)NC(=O)[C@H](CC(N)=O)NC(=O)CNC(=O)[C@H](CC(C)C)NC(=O)[C@H](CC(N)=O)NC(=O)[C@@H](NC(=O)CNC(=O)[C@@H](NC(=O)[C@H](CC(=O)O)NC(=O)[C@H](CC(C)C)NC(=O)[C@H](CCCNC(=N)N)NC(=O)[C@H](CCC(=O)O)NC(=O)[C@H](CC(C)C)NC(=O)[C@H](CO)NC(=O)[C@@H](NC(=O)[C@@H]1CCCN1C(=O)[C@@H]1CCCN1)[C@@H](C)CC)C(C)C)[C@@H](C)O)C(=O)N[C@@H](C)C(=O)N[C@@H](CCCCN)C(=O)N[C@@H](CC(C)C)C(=O)N[C@@H](CCC(=O)O)C(=O)N[C@@H](CC(=O)O)C(=O)N[C@@H](C)C(=O)N[C@@H](CCCCN)C(=O)N[C@@H](CCC(=O)O)C(=O)N[C@@H](CC(C)C)C(=O)N[C@@H](CC(C)C)C(=O)N[C@@H](CCC(=O)O)C(=O)N[C@@H](CO)C(=O)N[C@@H](CO)C(=O)N[C@@H](CC(=O)O)C(=O)N[C@@H](CCC(N)=O)C(=O)N[C@H](C(=O)N[C@@H](CC(C)C)C(=O)N[C@@H](CCCNC(=N)N)C(=O)NCC(=O)N[C@@H](CO)C(=O)NCC(=O)N[C@@H](CO)C(=O)NCC(=O)N[C@@H](CSC1CC(=O)N(CCCC(=O)NCCOCCOCCOCCOCCC(=O)NCCN(CCNC(=O)CCOCCOCCOCCOCCNC(=O)CCCN2C(=O)CC(SC[C@H](NC(=O)CNC(=O)[C@H](CO)NC(=O)CNC(=O)[C@H](CO)NC(=O)CNC(=O)[C@H](CCCNC(=N)N)NC(=O)[C@H](CC(C)C)NC(=O)[C@@H](NC(=O)[C@H](CCC(N)=O)NC(=O)[C@H](CC(=O)O)NC(=O)[C@H](CO)NC(=O)[C@H](CO)NC(=O)[C@H](CCC(=O)O)NC(=O)[C@H](CC(C)C)NC(=O)[C@H](CC(C)C)NC(=O)[C@H](CCC(=O)O)NC(=O)[C@H](CCCCN)NC(=O)[C@H](C)NC(=O)[C@H](CC(=O)O)NC(=O)[C@H](CCC(=O)O)NC(=O)[C@H](CC(C)C)NC(=O)[C@H](CCCCN)NC(=O)[C@H](C)NC(=O)[C@@H](NC(=O)[C@H](C)NC(=O)[C@H](CC(N)=O)NC(=O)CNC(=O)[C@H](CC(C)C)NC(=O)[C@H](CC(N)=O)NC(=O)[C@@H](NC(=O)CNC(=O)[C@@H](NC(=O)[C@H](CC(=O)O)NC(=O)[C@H](CC(C)C)NC(=O)[C@H](CCCNC(=N)N)NC(=O)[C@H](CCC(=O)O)NC(=O)[C@H](CC(C)C)NC(=O)[C@H](CO)NC(=O)[C@@H](NC(=O)[C@@H]3CCCN3C(=O)[C@@H]3CCCN3)[C@@H](C)CC)C(C)C)[C@@H](C)O)[C@@H](C)CC)[C@@H](C)CC)C(=O)O)C2=O)CCO[C@H]2CC[C@@]3(C)C(=CC[C@H]4[C@@H]5CC[C@H]([C@H](C)CCCC(C)C)[C@@]5(C)CC[C@@H]43)C2)C1=O)C(=O)O)[C@@H](C)CC (stereo partly shown) [HRC4]
Effect on membrane fusion mediated by wild-type F: inhibited membrane fusion
